## CycPeptMPDB entries from one study

Data: CycPeptMPDB; original report Townsend et al. 2020, doi:10.26434/chemrxiv.13335941.v1.

PAMPA measures passive passage through an artificial lipid membrane. Values are log10 P with P in cm/s, so -5 is more permeable than -7.

PAMPA (log10 cm/s),compound
-5.08,CC(C)C[C@@H]1C(=O)N[C@H](CC(C)C)C(=O)N2CCC[C@H]2C(=O)N[C@H](CC(C)C)C(=O)N[C@@H](Cc2ccccc2)C(=O)N(C)[C@@H](C)C(=O)N1C
-5.51,CCCN1CC(=O)N[C@H](CC(C)C)C(=O)N[C@H](CC(C)C)C(=O)N2CCC[C@H]2C(=O)N(C)[C@H](CC(C)C)C(=O)N[C@@H](Cc2ccccc2)C(=O)N2CCC[C@H]2C1=O
-5.80,CC(C)C[C@@H]1NC(=O)[C@@H]2CCCN2C(=O)[C@@H](CC(C)C)NC(=O)[C@@H](CC(C)C)NC(=O)[C@H](C)N(C)C(=O)[C@H](Cc2ccccc2)NC1=O
-6.33,CC(C)C[C@@H]1NC(=O)[C@@H](C)N(C)C(=O)[C@H](Cc2ccccc2)NC(=O)[C@@H](CC(C)C)NC(=O)[C@H]2CCCN2C(=O)C[C@H](Cc2ccccc2)NC1=O
-5.33,CC(C)C[C@@H]1C(=O)N(C)[C@@H](CC(C)C)C(=O)N2CCC[C@H]2C(=O)N[C@H](CC(C)C)C(=O)N[C@@H](Cc2ccccc2)C(=O)N2CCC[C@@H]2C(=O)N(C)[C@@H](C)C(=O)N1C
-5.53,CCCN1CC(=O)N[C@H](CC(C)C)C(=O)N[C@@H](CC(C)C)C(=O)N2CCC[C@@H]2C(=O)N(Cc2ccccc2)CC(=O)N[C@@H](Cc2ccccc2)C(=O)N2CCC[C@H]2C1=O
-5.59,CC(C)C[C@@H]1C(=O)N2CCC[C@@H]2C(=O)N(Cc2ccccc2)CC(=O)N[C@@H](Cc2ccccc2)C(=O)N2CCC[C@H]2C(=O)N(C)[C@@H](C)C(=O)N(C)[C@H](CC(C)C)C(=O)N1C
-5.17,CC(C)C[C@@H]1NC(=O)[C@H](CC(C)C)N(C)C(=O)[C@H](C)NC(=O)[C@H](Cc2ccccc2)NC(=O)[C@H](CC(C)C)N(C)C(=O)[C@H]2CCCN2C1=O
-5.35,CC(C)C[C@@H]1C(=O)N[C@@H](Cc2ccccc2)C(=O)N[C@@H](C)C(=O)N(C)[C@@H](CC(C)C)C(=O)N[C@H](CC(C)C)C(=O)N2CCC[C@H]2C(=O)N1C
-5.55,CC(C)C[C@@H]1C(=O)N[C@@H](Cc2ccccc2)C(=O)N2CCC[C@@H]2C(=O)N[C@@H](Cc2ccccc2)CC(=O)N(C)[C@@H](CC(C)C)C(=O)N[C@@H](Cc2ccccc2)CC(=O)N2CCC[C@@H]2C(=O)N1C
-5.14,CC(C)C[C@@H]1C(=O)N2CCC[C@H]2C(=O)N(C)[C@@H](CC(C)C)C(=O)N[C@@H](Cc2ccccc2)C(=O)N[C@@H](C)C(=O)N(C)[C@@H](CC(C)C)C(=O)N1C
-6.13,CCCN1CC(=O)N[C@H](CC(C)C)C(=O)N[C@H](CC(C)C)C(=O)N2CCC[C@@H]2C(=O)N[C@@H](CC(C)C)C(=O)N[C@@H](Cc2ccccc2)C(=O)N2CCC[C@@H]2C1=O
-5.37,CC(C)C[C@H]1C(=O)N(Cc2ccccc2)CC(=O)N2CCC[C@@H]2C(=O)N(C)[C@@H](CC(C)C)C(=O)N[C@@H](Cc2ccccc2)C(=O)N2CCC[C@@H]2C(=O)N[C@@H](Cc2ccccc2)CC(=O)N1C
-6.22,CC(C)C[C@@H]1C(=O)N[C@@H](Cc2ccccc2)C(=O)N[C@@H](C)C(=O)N(C)[C@@H](CC(C)C)C(=O)N(Cc2ccccc2)CC(=O)N2CCC[C@@H]2C(=O)N1C
-5.70,CC(C)C[C@@H]1C(=O)N(C)[C@@H](CC(C)C)C(=O)N2CCC[C@H]2C(=O)N[C@H](CC(C)C)C(=O)N[C@@H](Cc2ccccc2)C(=O)N(C)[C@H](C)C(=O)N1C
-5.88,CC(C)C[C@H]1NC(=O)[C@H](C)NC(=O)[C@@H]2CCCN2C(=O)[C@H](Cc2ccccc2)NC(=O)CN(Cc2ccccc2)C(=O)[C@H]2CCCN2C(=O)[C@H](CC(C)C)N(C)C1=O
-5.74,CC(C)C[C@@H]1C(=O)N[C@H](CC(C)C)C(=O)N2CCC[C@H]2C(=O)N(C)[C@H](CC(C)C)C(=O)N[C@@H](Cc2ccccc2)C(=O)N2CCC[C@@H]2C(=O)N[C@@H](C)C(=O)N1C
-6.72,CC(C)C[C@H]1NC(=O)[C@@H](C)NC(=O)[C@H](Cc2ccccc2)NC(=O)CN(Cc2ccccc2)C(=O)[C@H]2CCCN2C(=O)[C@@H](CC(C)C)NC1=O
-5.88,CC(C)C[C@@H]1C(=O)N[C@@H](Cc2ccccc2)C(=O)N[C@@H](Cc2ccccc2)CC(=O)N[C@H](CC(C)C)C(=O)N[C@@H](Cc2ccccc2)CC(=O)N2CCC[C@H]2C(=O)N1C
-5.88,CCCN1CC(=O)N(C)[C@H](CC(C)C)C(=O)N[C@H](CC(C)C)C(=O)N2CCC[C@@H]2C(=O)N[C@@H](CC(C)C)C(=O)N[C@@H](Cc2ccccc2)C(=O)N2CCC[C@@H]2C1=O
-5.76,CCCN1CC(=O)N[C@H](CC(C)C)C(=O)N[C@H](CC(C)C)C(=O)N2CCC[C@H]2C(=O)N(Cc2ccccc2)CC(=O)N[C@@H](Cc2ccccc2)C(=O)N2CCC[C@H]2C1=O
-5.82,CC(C)C[C@@H]1NC(=O)[C@H](C)N(C)C(=O)[C@@H]2CCCN2C(=O)[C@H](Cc2ccccc2)NC(=O)[C@@H](CC(C)C)NC(=O)[C@H]2CCCN2C(=O)[C@@H](CC(C)C)N(C)C1=O
-5.53,CC(C)C[C@@H]1NC(=O)[C@@H](CC(C)C)N(C)C(=O)C[C@H](Cc2ccccc2)NC(=O)[C@H]2CCCN2C(=O)[C@H](Cc2ccccc2)NC(=O)[C@@H](CC(C)C)N(C)C(=O)[C@H]2CCCN2C1=O
-5.73,CC(C)C[C@@H]1C(=O)N[C@@H](Cc2ccccc2)C(=O)N2CCC[C@@H]2C(=O)N(C)[C@H](C)C(=O)N(Cc2ccccc2)CC(=O)N[C@@H](Cc2ccccc2)CC(=O)N2CCC[C@@H]2C(=O)N1C

The first 4 entries again:

| compound | PAMPA (log10 cm/s) |
|---|---|
| CC(C)C[C@@H]1C(=O)N[C@H](CC(C)C)C(=O)N2CCC[C@H]2C(=O)N[C@H](CC(C)C)C(=O)N[C@@H](Cc2ccccc2)C(=O)N(C)[C@@H](C)C(=O)N1C | -5.08 |
| CCCN1CC(=O)N[C@H](CC(C)C)C(=O)N[C@H](CC(C)C)C(=O)N2CCC[C@H]2C(=O)N(C)[C@H](CC(C)C)C(=O)N[C@@H](Cc2ccccc2)C(=O)N2CCC[C@H]2C1=O | -5.51 |
| CC(C)C[C@@H]1NC(=O)[C@@H]2CCCN2C(=O)[C@@H](CC(C)C)NC(=O)[C@@H](CC(C)C)NC(=O)[C@H](C)N(C)C(=O)[C@H](Cc2ccccc2)NC1=O | -5.80 |
| CC(C)C[C@@H]1NC(=O)[C@@H](C)N(C)C(=O)[C@H](Cc2ccccc2)NC(=O)[C@@H](CC(C)C)NC(=O)[C@H]2CCCN2C(=O)C[C@H](Cc2ccccc2)NC1=O | -6.33 |

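The data file gives no further conditions (lipid, pH, time, direction or concentration), and values from different papers need not be comparable. The list need not hold all peptides of the study. Peptides that the database sets to -10, its floor, are left out.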